## Ab-95 light chain CDR variants: yeast mating affinities

Target: peptide PDVDLGDISGINAS, taken from heptad repeat 2 (HR2) of SARS-CoV-2 spike.

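The parent was found by panning a naive human phage display library on the peptide. Variants in AAYL52 differ from the parent at up to three CDR positions; double and triple changes were sampled at random. The assay is AlphaSeq: two haploid yeast populations carry antibody and antigen on their surface. Pairs that bind mate more often; barcode pairs of the diploids are counted by sequencing. Each replicate has its own calibration line, from reference interactions of the BCL2 family. Each pool was mated in three replicate cultures.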

Parent: Ab-95, a human scFv built as VH, a 15-residue (Gly4Ser)3 linker, VL. Only the CDRs of the light chain vary.
VH: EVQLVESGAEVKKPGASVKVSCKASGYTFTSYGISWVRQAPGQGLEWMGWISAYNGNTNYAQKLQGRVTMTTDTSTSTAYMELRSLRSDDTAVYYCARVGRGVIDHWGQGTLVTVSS
VL: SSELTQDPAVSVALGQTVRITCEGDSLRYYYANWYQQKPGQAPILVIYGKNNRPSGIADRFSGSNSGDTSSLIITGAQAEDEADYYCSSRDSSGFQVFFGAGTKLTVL

Changes read parent residue, position, new residue, counted from the first residue of the VL shown. Numbers give log10(Kd / nM), so 0 is 1 nM and 3 is 1 µM. Smaller is tighter. The mean shown is taken over the replicates in which the pair was detected. "nd" means that the variant was in the library but no mating with the target was seen in any replicate; the authors take this as a sign of poor binding, and no number exists.

changes	log10 Kd (nM), mean	seen in	empty controls
S55D/S89Q	2.16	3 of 3	2 of 9
R53V/S88L/R90Q	3.87	2 of 3	2 of 9
G24W/G49M/N52G	nd	0 of 3	2 of 9
S88K/F95Y/F98S	2.92	3 of 3	2 of 9
R53M/S88N/F98N	3.77	1 of 3	1 of 9
E23H/D25E/G94V	2.06	3 of 3	4 of 9
D25A/S88H/Q96I	4.67	2 of 3	3 of 9
N33A/D91P/S92A	3.97	3 of 3	4 of 9
L27V/S88D/Q96S	4.37	1 of 3	4 of 9
A32C/N51E/S88Y	4.04	2 of 3	4 of 9
R28H/Y31N/V97H	1.93	3 of 3	5 of 9
L27R/K50W/N51A	4.22	2 of 3	4 of 9
D25R/A32V/N33R	3.18	3 of 3	2 of 9
E23A/G24A/S92F	nd	0 of 3	2 of 9
R28Y/Y29P/Y31H	2.51	3 of 3	3 of 9
N33L/G49M/F95K	nd	0 of 3	2 of 9
Y30A/R53L/S89E	nd	0 of 3	1 of 9
Y30D/S92P/Q96G	2.25	3 of 3	1 of 9
G49S/F95Y/V97F	4.38	2 of 3	2 of 9
L27Y/G94L/V97S	4.53	1 of 3	0 of 9
N51E/R90L/F98D	3.91	3 of 3	2 of 9
G24W/S89H/V97S	3.66	1 of 3	1 of 9
S26H/S88D/S92L	nd	0 of 3	0 of 9
R53F/P54G/R90S	4.05	1 of 3	2 of 9
L27A/R90V/Q96Y	nd	0 of 3	0 of 9
N33L/G49H/R53Y	nd	0 of 3	2 of 9

Second part, the sequence after the result:

log10 Kd (nM), mean	seen in	empty controls	changes
nd	0 of 3	1 of 9	N33V/R53H/F98E
2.48	3 of 3	2 of 9	P54H/S55T/S89N
4.22	2 of 3	3 of 9	Y30I/N33H/P54M
3.01	3 of 3	3 of 9	G49E/S55H
4.12	2 of 3	4 of 9	G49H/K50P/S88C
3.19	2 of 3	1 of 9	E23A/Y31C/G94P
nd	0 of 3	4 of 9	S26F/P54Q/F95L
nd	0 of 3	0 of 9	R28T/Y31E/S88K
nd	0 of 3	2 of 9	R90D/F95E/V97R
1.58	3 of 3	3 of 9	Y30H/A32S
nd	0 of 3	3 of 9	N33R/R90Y/S92Y
3.86	2 of 3	2 of 9	L27H/S88V/S92K
2.82	3 of 3	7 of 9	L27I/Y30C
3.25	1 of 3	2 of 9	N33V/G49Y/S89E
4.31	1 of 3	1 of 9	G49P/F95C/V97Y
2.63	3 of 3	3 of 9	Y29A/D91L/F98Y
3.98	2 of 3	1 of 9	N52R/S89P
2.85	3 of 3	2 of 9	E23G/S55K/Q96T
1.36	3 of 3	5 of 9	Y30T/S88P/S93Y
3.84	3 of 3	5 of 9	N51Y/S55C/F95Q
2.26	3 of 3	3 of 9	Y30E/Y31W/D91L
nd	0 of 3	1 of 9	E23F/N52K/R90L
4.77	2 of 3	2 of 9	G24P/Y31P/N33P
3.58	1 of 3	1 of 9	G24S/Y31M/S93E
4.34	2 of 3	2 of 9	Y29E/K50W/N51A
3.31	3 of 3	1 of 9	S89Y/D91A/G94I

Picked from the list: the 9 lowest averages where every replicate gave a value.

changes	log10 Kd (nM), mean	seen in	empty controls
Y30T/S88P/S93Y	1.36	3 of 3	5 of 9
Y30H/A32S	1.58	3 of 3	3 of 9
R28H/Y31N/V97H	1.93	3 of 3	5 of 9
E23H/D25E/G94V	2.06	3 of 3	4 of 9
S55D/S89Q	2.16	3 of 3	2 of 9
Y30D/S92P/Q96G	2.25	3 of 3	1 of 9
Y30E/Y31W/D91L	2.26	3 of 3	3 of 9
P54H/S55T/S89N	2.48	3 of 3	2 of 9
R28Y/Y29P/Y31H	2.51	3 of 3	3 of 9

Empty control strains, which show no peptide, gave a signal in 28% of pairings with library AAYL52; the median was 3.91 and 95% of these signals were weaker than 2.90. No background was subtracted. Also given: how often the same scFv was detected with the empty control strains. For reference, the parent read 2.31 as the reference entry and 2.25 as a member of this library.

Values reported by Engelhart et al. 2022, doi:10.1038/s41597-022-01779-4 (FLAb copy).